According to ChEMBL document CHEMBL1132774, “Tetrahydroisoquinoline derivatives containing a benzenesulfonamide moiety as potent, selective human beta3 adrenergic receptor agonists” (Bioorg Med Chem Lett, 2000):

Target: Beta-1 adrenergic receptor (Homo sapiens, UniProt P08588)
Test: Compound was evaluated for its adenylyl cyclase activation at human beta-1 adrenergic receptor (AR)

- Activation: 67%
Structure (SMILES): CCCCCCNC(=O)Nc1ccc(S(=O)(=O)Nc2ccc(-c3ccc(CC4NCCc5cc(O)c(O)cc54)cc3)cc2)cc1 (stereo unspecified)
